# From patent US20140308678
# T1: K810A-RB1 (773-813)
# T1 chain: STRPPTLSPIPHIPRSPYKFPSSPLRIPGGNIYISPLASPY
# T2: RB1 (773-928), recombinant
# T2 chain: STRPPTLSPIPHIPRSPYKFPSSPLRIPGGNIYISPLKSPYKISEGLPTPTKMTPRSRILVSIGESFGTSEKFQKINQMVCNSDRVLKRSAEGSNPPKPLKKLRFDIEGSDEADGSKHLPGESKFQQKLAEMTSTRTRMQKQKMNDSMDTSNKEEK
# How the values were obtained:
# K810A-RB1 (773-813) = biological target: T1, K810A-RB1 (773-813)
# [1] = biological target: T2, RB1 (773-928), recombinant
protein,measurement,setting,value
His-SMYD2 (protein) MRAEGLGGLERFCSPGKGRGLRALQPFQVGDLLFSCPAYAYVLTVNERGNHCEYCFTRKEGLSKCGRCKQAFYCNVECQKEDWPMHKLECSPMVVFGENWNPSETVRLTARILAKQKIHPERTPSEKLLAVKEFESHLDKLDNEKKDLIQSDIAALHHFYSKHLGFPDNDSLVVLFAQVNCNGFTIEDEELSHLGSAIFPDVALMNHSCCPNVIVTYKGTLAEVRAVQEIKPGEEVFTSYIDLLYPTEDRNDRLRDSYFFTCECQECTTKDKDKAKVEIRKLSDPPKAEAIRDMVRYARNVIEEFRRAKHYKSPSELLEICELSQEKMSSVFEDSNVYMLHMMYQAMGVCLYMQDWEGALQYGQKIIKPYSKHYPLYSLNVASMWLKLGRLYMGLEHKAAGEKALKKAIAIMEVAHGKDHPYISEIKQEIESH,in vitro methyltransferase assay (fluorography),K810A-RB1 (773-813),K810A-RB1 is not methylated by SMYD2
same,in vitro methyltransferase assay (fluorography),[1],the C-terminal region (773 aa to 928 aa) of RB1 protein includes the methylation site(s)
